{"source": "patent US9303006B2", "about": "“Line leaf inula flower lactone A and methods for preparing and using the same for treating myocarditis” (SHANXI ZHENDONG PILOT BIOLOGICAL SCIENCE AND TECHNOLOGY …, priority 2012, dated 2016)", "type_in_all_cases": "in vivo, Balb/c male mice", "key": {"[1]": {"system": "coxsackie B group virus B3 type Nancy strains (CVB3)", "experiment": "Life protection (survival time) of mice infected by CVB3", "settings": "subcutaneous 15000 units per mouse, four injections", "protocol": "(§1) The thin Leaf inula flower lactone A compound from Example 1 was used; a viral strain: coxsackie B group virus B3 type Nancy strains (CVB3) was used at a virus infection dose of 10LD50 virus 0.2 ml through abdominal cavity infection in mice. The animals used were Balb/c male mice, 13 g to 15 g, from Shanghai West S&P-Bick Experimental Animals Co., Ltd. with animal number: qualified SCXX (Shanghai), 2008-0016. The positive control medicine was human recombinant interferon alpha 2 a, YinTeFen, Shenyang Junior Pharmaceutical co., Ltd., Product batch number 20090708.\n(§2) Preparation and administration: the line leaf inula flower lactone A compound was weighed, ground, and suspended in 0.5% CMC (carboxymethyl cellulose) mixture at 10 mg/ml solution. Oral administration of the medicine was conducted for once per day, every time at 0.5 ml, for 7 days.\nThe experimental groups included (1) the viral infection group, each group had 10 mice, were given 0.5% CMC solution and virus. (2) The normal control group, each group had 10 mice, were given 0.5% CMC solution only. […]\nTest process was that after virus infection in mice (except the normal control group) for 2 hours, total drug delivery was performed 7 days in a row, observation was conducted until 14 days. The incidence and deaths were recorded every day, and the average survival days prolongation of life were calculated with p value calculation."}, "CVB3-Infected Mice": {"system": "CVB3-Infected Mice", "experiment": "Live body weight in CVB3-infected mice", "settings": "IFN 15000 units per mouse s.c.", "protocol": "as §1, §2\n(§3) The experimental groups included (1) the viral infection group, each group had 10 mice, were given 0.5% CMC solution and virus. (2) The normal control group, each group had 10 mice, were given 0.5% CMC solution only. (3) Positive drug control group, each group had 10 mice, subcutaneous injections of recombinant interferon alpha 2 a suspended in 0.5% CMC solution, 15000 units per mouse, once every 2 days injection, a total of four injections. (4) High dose drug treatment group of 100 mg/kg, 10 mice in each group, oral give line leaf inula flower lactone A 50 mg/kg dose in drug treatment group, each group of 10, only oral give leaves Inula flowers lactone A. (5) Drug treatment of low dose group of 10 mg/kg, 10 in each group, oral give leaves Inula flowers lactone A. Observation parameters included life, neutralizing antibodies, virus protection, weight drops, myocardial tissue pathological slices, echocardiogram.\n(§4) Another group of 10 mice, with infection, was weighed after 7 days. Four mice were taken to detect cardiac function, and killed and dissected for collecting blood to test neutralizing antibody, heart weighing calculation index, and grinding the heart, with three resistance MEM fluid containing 10%. 1:10 dilution, on the cell model to detect coxsackie virus in mice drop degree (to observe the myocardial cell lesions) separation of virus infection."}, "[2]": {"system": "coxsackie B group virus B3 type Nancy strains (CVB3)", "experiment": "CVB3-infected mice myocardial virus measured on cell model at 7th day (heart homogenate 1:10, cell lesions)", "settings": "IFN 15000 units per mouse s.c.", "protocol": "as §1, §2, §3, §4"}}, "note": "“And” between values parts separate entries of the source, which are not always exact repeats. Equal values may be shown once. “Also recorded” adds a separate entry of the source.", "data": [{"substance": "IFN: positive control medicine, human recombinant interferon alpha 2 a, YinTeFen [reference compound]", "values": [{"measurement": "survival time compared with the virus control group", "setting": "[1]", "value": "no significant difference"}, {"measurement": "Survival time M", "setting": "[1]; once every 2 days, CVB3-infected mice", "value": 8.4, "unit": "days"}, {"measurement": "Live body weight M ± SD", "setting": "CVB3-Infected Mice; 4 days", "value": "14.80 ± 1.50"}, {"measurement": "Live body weight M ± SD", "setting": "CVB3-Infected Mice; 8 days", "value": "15.82 ± 0.47"}, {"measurement": "Live body weight M ± SD", "setting": "CVB3-Infected Mice; 14 days", "value": "18.07 ± 0.88"}, {"measurement": "Live body weight M ± SD", "setting": "CVB3-Infected Mice; Before", "value": "14.53 ± 0.59"}, {"measurement": "1:10 (cell lesions from myocardial homogenate)", "setting": "[2]; individual mice NO 1-5", "value": "± (plus or minus: 0%); also recorded: + (: + 50%)"}, {"measurement": "Lesions rate %", "setting": "[2]; individual mice NO 1-5", "value": "25% and 50% (4×)"}, {"measurement": "Average disease rate %", "setting": "[2]; virus control 90%", "value": 45, "unit": "%"}, {"measurement": "Reduce lesions", "setting": "[2]; vs virus control", "value": 50.00, "unit": "%"}]}]}
